Experimental data published in patent US20120208781A1, “AMINOGLYCOSIDE DOSING REGIMENS” (Achaogen, Inc., priority 2009, published 2012).
Where two headings read alike, the source gives them in different places.

Conditions: rat, in vivo

- CA (10 mg/kg): 11.3
- CA, day 6 (10 mg/kg): 11.1 mg/dL
- CA (30 mg/kg): 11.1
- CA, day 6 (30 mg/kg): 11.1 mg/dL
- CA (100 mg/kg): 11.7
SMILES: NC[C@H]1O[C@H](O[C@H]2[C@H](O)[C@@H](O[C@H]3O[C@H](CO)[C@@H](O)[C@H](N)[C@H]3O)[C@H](N)C[C@@H]2N)[C@H](N)C[C@@H]1O [Tobramycin, tobramycin]
